Measured values: PubChem BioAssay AID1595 (NINDS Approved Drug Screening Program, 2009)
Records with an inconclusive call do not appear.

Test system: Drosophila SCA1 polyglutamine model, toxicity suppression
Test: Polyglutamine toxicity reduction dose response, whole organism Drosophila SCA1 model (AID 1595)

CN(CCCl)CCCl
EC50: 2500 nM
